High-throughput results as filed in PubChem.
AF4-AF9 inh: MLL-AF4/AF9 protein interaction inhibition; 350,000 tested, 0.47% active; AlphaScreen, biotin-AF4 peptide binding to FLAG-AF9; inhibition, % at 10 µM; P42568; AID 651704;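 active = every replicate reaching a set inhibition limit, whatever the replicate mean, cut at about 25% in these data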
E-sel inducer: E-selectin induction on HUVECs. activation, % at 7.58 µM. HUVEC E-selectin immunofluorescence imaging; normalized: neutral wells 0, TNF-alpha wells 100. AID 686992. P16581. 260,000 tested, 0.37% active;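 active = mean E-selectin-positive cell signal at least 10% of the positive control, reached in at least 60% of replicates, without over 20% cell loss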
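System: HUVEC, human umbilical vein endothelial cells; quantity: 3,000 cells/well; buffer or medium: EGM-2 medium, gelatin-coated wells; dosing: single-point compound dose; detection: immunofluorescence imaging; evaluation: % PE-positive cells; benchmarks: TNF-alpha, DMSO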
SIRT5 inh: sirtuin-5 (human) deacylase inhibition; Purified SirT5, succinyl-peptide AMC, trypsin-coupled fluorescence; inhibition, % at 15 µM; 330,000 tested, 1.1% active; in the data active = inhibition above about 15%
Yeast UUG start-1: yeast start codon fidelity modulation. S. cerevisiae UUG-firefly luciferase reporter, luminescence/redox ratio. activity score, % at 18.7 µM. 0.13% of 350,000 active;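 active = replicate mean at a twofold rise or more, about +100% in these data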;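 also: firefly luciferase made from a UUG start codon reports start codon fidelity; reporter light over untreated wells divided by growth signal over untreated wells; some hits fall short of that in this replicate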
RAD54 inh: blocks human RAD54 Holliday junction branch migration; 360,000 tested, 0.14% active; FAM/BHQ fluorescence; Q92698; AID 602329; inhibition, % at 10.4 µM;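 active = mean normalized replicate activity at least 40 and at least half of replicates scoring 40 or more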;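 note: inhibitors cause a drop in the FAM fluorescence signal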
RAD52 inh: RAD52 (human) annealing inhibition; recombinant RAD52 DNA annealing, FRET fluorescence; inhibition, % at 18.7 µM; 360,000 tested, 0.46% active; AID 651710;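 active = every replicate showing at least 50% inhibition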
Yeast UUG start-2: modulators of start codon recognition fidelity in yeast | 540 tested, under 10 active | shares compounds with Yeast UUG start-1 | AID 652061 | activation, % at 38 µM | S. cerevisiae UUG-start firefly luciferase, luminescence, 4 h; 100% means double the DMSO signal;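 active = signal increase whose fitted curve reaches an absolute level of 40 at a concentration under 10 µM; inactive = activity opposite to the expected increase, or the rest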
Large screens that a line does not name were inactive (follow-up assays come after a bar, where they were run). Sampled rows, rich in hits. Any-hit rate of the full collection: about 1.8%.

COC(=O)c1c2oc(c1C(=O)OC)C(=O)N[C@@H](Cc1ccccc1)Cn1cc(nn1)[C@@H](Cc1ccccc1)NC(=O)N[C@@H](CO)CC2	none (no result: E-sel inducer, Yeast UUG start-1, RAD54 inh)
O=C(O)CSc1nnc(-c2ccc(Cl)cc2)n1-c1ccccc1	Yeast UUG start-1 123.6 (no result: E-sel inducer) | Yeast UUG start-2 inactive
COCC(=O)NC[C@@H]1[C@@H](c2ccccc2)[C@@H](CO)N1C(C)=O	none
C[C@@H]1CN([C@@H](C)CO)C(=O)Cc2cc(NS(=O)(=O)c3ccccc3)ccc2O[C@H]1CN(C)Cc1ccc(C(F)(F)F)cc1	Yeast UUG start-1 159.4 | Yeast UUG start-2 inactive
C[C@H]1CCCCO[C@@H](CN(C)Cc2ccccc2)[C@@H](C)CN([C@@H](C)CO)C(=O)c2cc(NC(=O)c3ccccc3)ccc2O1	Yeast UUG start-1 147.1 (no result: AF4-AF9 inh, E-sel inducer, SIRT5 inh, RAD52 inh) | Yeast UUG start-2 inactive
C[C@@H]1CN([C@@H](C)CO)C(=O)Cc2cc(NS(=O)(=O)c3ccccc3)ccc2O[C@@H]1CN(C)Cc1ccc(C(F)(F)F)cc1	none
CC(C)NC(=O)N(C)C[C@@H]1Oc2ccc(NC(=O)Nc3cccc4ccccc34)cc2C(=O)N([C@@H](C)CO)C[C@@H]1C	Yeast UUG start-1 150.5 | Yeast UUG start-2 inactive
O=C(C[C@H]1C=C[C@H](NS(=O)(=O)c2ccccc2)[C@@H](CO)O1)N1CCC(Cc2ccccc2)CC1	none (no result: Yeast UUG start-1, RAD54 inh)
C/C=C/c1ccc([C@@H]2[C@@H](CO)N(C(C)=O)[C@@H]2CN(C)S(C)(=O)=O)cc1	none (no result: AF4-AF9 inh, SIRT5 inh, RAD52 inh)
CC(C)n1cc(C(=O)c2ccccc2O)cc(C#N)c1=O	Yeast UUG start-1 229.8 (no result: E-sel inducer) | Yeast UUG start-2 inactive
Cc1cc(NC(=O)COC(=O)COc2ccc(C(=O)c3ccccc3)cc2)no1	Yeast UUG start-1 183.6 (no result: AF4-AF9 inh, E-sel inducer, SIRT5 inh, RAD52 inh) | Yeast UUG start-2 inactive
COc1ccc2oc(C(=O)OCC(=O)NCCc3ccccc3)c(C)c2c1	none | Yeast UUG start-2 inactive
COc1ccc2oc(C(=O)OCC(=O)N3CCN(C(C)=O)CC3)c(C)c2c1	none | Yeast UUG start-2 inactive
CCOc1ccc2oc(C(=O)OCC(=O)NC(=O)NC)c(C)c2c1	none | Yeast UUG start-2 inactive
COc1ccc2oc(C(=O)OCC(=O)N3CCCCC3)c(C)c2c1	none
C[C@H](CO)N1C[C@H](C)[C@H](CN(C)S(=O)(=O)c2ccccc2)Oc2ccc(NC(=O)Cn3cnnn3)cc2CC1=O	none
O=C(NNc1c(Cl)cc(Cl)cc1Cl)c1n[nH]c(=O)c2ccccc12	Yeast UUG start-1 209.1 (no result: E-sel inducer) | Yeast UUG start-2 inactive
NNC(=O)c1n[nH]c(=O)c2ccccc12	none
Cc1ccc(N2CC(C(=O)Nc3nnc(SCC(N)=O)s3)CC2=O)cc1 (stereo unspecified)	Yeast UUG start-1 163.9 | Yeast UUG start-2 inactive
CN1C(=O)c2cc(NC(=O)c3ccc(F)cc3)ccc2OC[C@H]2O[C@H](CC(=O)NCC3CC3)CC[C@@H]21	none
O=C(Nc1ccccc1F)N1[C@@H](CO)[C@@H]2c3ccccc3NC[C@@H]21	none
COc1ccc(NC(=S)N2CCCC2c2ccc(OC)c(OC)c2)cc1 (stereo unspecified)	Yeast UUG start-1 339.4 (no result: E-sel inducer) | Yeast UUG start-2 inactive
COc1ccc(C2CCCN2C(=S)Nc2cccc(C)c2)cc1OC (stereo unspecified)	none (no result: Yeast UUG start-1, RAD54 inh)
CCCc1nc(-c2cc3ccccc3[nH]c2=O)no1	Yeast UUG start-1 226.9 (no result: E-sel inducer) | Yeast UUG start-2 inactive
CCCc1nc(-c2ccc(-c3ccc(F)cc3)cc2)no1	none (no result: AF4-AF9 inh, E-sel inducer, SIRT5 inh, RAD52 inh)
C[C@@H]1CN([C@@H](C)CO)C(=O)c2cc(NC(=O)c3ccncc3)ccc2O[C@@H]1CN(C)C(=O)Nc1ccc(F)cc1	none
Cn1c(C(=O)O)c(C=O)c2ccccc21	none
Cc1c(C(=O)C(C)C)n(C)c2ccccc12	Yeast UUG start-1 434.9 (no result: AF4-AF9 inh, E-sel inducer, SIRT5 inh, RAD52 inh) | Yeast UUG start-2 inactive
COc1ccc(NC(=O)N(C)C[C@@H]2Oc3cc(-c4ccncc4)ccc3S(=O)(=O)N([C@@H](C)CO)C[C@@H]2C)cc1	none
COc1ccc(-c2ccc3c(c2)O[C@H](CN(C)C(=O)c2ccccc2F)[C@H](C)CN([C@H](C)CO)S3(=O)=O)cc1	Yeast UUG start-1 25.0 | Yeast UUG start-2 inactive
Cc1ccccc1-c1ccc2c(c1)O[C@H](CN(C)C(=O)c1ccccn1)[C@H](C)CN([C@H](C)CO)S2(=O)=O	Yeast UUG start-1 139.4 | Yeast UUG start-2 inactive
COc1ccc(-c2ccc3c(c2)O[C@H](CN(C)C(=O)c2ccccc2F)[C@H](C)CN([C@@H](C)CO)S3(=O)=O)cc1	none
C[C@H](CO)N1C[C@H](C)[C@@H](CN(C)C(=O)Nc2ccccc2F)Oc2cc(Br)ccc2S1(=O)=O	none
COc1ccc(NC(=O)N(C)C[C@@H]2Oc3cc(-c4ccncc4)ccc3S(=O)(=O)N([C@H](C)CO)C[C@@H]2C)cc1	Yeast UUG start-1 172.2 | Yeast UUG start-2 inactive
Cc1ccccc1-c1ccc2c(c1)O[C@H](CN(C)C(=O)c1ccccn1)[C@@H](C)CN([C@@H](C)CO)S2(=O)=O	none
COc1ccccc1NC(=O)N(C)C[C@@H]1Oc2cc(Br)ccc2S(=O)(=O)N([C@@H](C)CO)C[C@H]1C	Yeast UUG start-1 109.4 | Yeast UUG start-2 inactive
Cc1noc(C)c1NC(=O)Nc1cccc2c1O[C@@H](CN(C)C(=O)NC1CCCCC1)[C@@H](C)CN([C@@H](C)CO)C2=O	none
COCC(=O)Nc1ccc2c(c1)[C@@H]1C[C@@H](CC(=O)NCc3ccccn3)O[C@@H](CO)[C@@H]1O2	none
COCCn1c(C)cc(C(=O)CSc2nnc(-c3cccnc3)n2-c2ccccc2F)c1C	none (no result: AF4-AF9 inh, E-sel inducer, SIRT5 inh, RAD52 inh)
Cc1ccccc1-n1c(SCC(=O)c2cc(C)n(C)c2C)nnc1-c1cccnc1	none (no result: AF4-AF9 inh, E-sel inducer, SIRT5 inh, Yeast UUG start-1, RAD54 inh, RAD52 inh) | Yeast UUG start-2 inactive
O=c1c2c(n3cnnc3n1-c1ccccc1)-c1ccccc1CC21CCCCC1	Yeast UUG start-1 active (no result: AF4-AF9 inh, E-sel inducer, SIRT5 inh, RAD52 inh) | Yeast UUG start-2 inactive
COc1ccccc1CC(=O)OC(C)C(=O)Nc1ccc(S(=O)(=O)N2CCCCC2)cc1 (stereo unspecified)	none (no result: E-sel inducer) | Yeast UUG start-2 inactive
COC(=O)Nc1ccc(S(=O)(=O)N2CCC(C)CC2)cc1	none (no result: AF4-AF9 inh, E-sel inducer, SIRT5 inh, RAD52 inh)
COC(=O)Nc1ccc(S(=O)(=O)N2CCC(Cc3ccccc3)CC2)cc1	Yeast UUG start-1 461.7 (no result: AF4-AF9 inh, E-sel inducer, SIRT5 inh, RAD52 inh) | Yeast UUG start-2 inactive
C[C@H]1CN([C@@H](C)CO)C(=O)c2cc(NC(=O)Nc3cccc4ccccc34)ccc2O[C@@H]1CN(C)Cc1ccc(C(=O)O)cc1	none
CC(C)C(=O)c1cn(CC(=O)NCC2CCCO2)c2ccccc12 (stereo unspecified)	Yeast UUG start-1 448.8 (no result: AF4-AF9 inh, E-sel inducer, SIRT5 inh, RAD52 inh) | Yeast UUG start-2 inactive
CCc1cccc2c(C(=O)C(F)(F)F)cn(CC(=O)NCC3CCCO3)c12 (stereo unspecified)	none (no result: Yeast UUG start-1, RAD54 inh) | Yeast UUG start-2 inactive
C[C@@H]1CCCCO[C@@H](CN(C)Cc2ccccc2)[C@@H](C)CN([C@H](C)CO)C(=O)c2cc(NC(=O)CCC(F)(F)F)ccc2O1	none
